{"source": "PubChem BioAssay (Tox21)", "note": "Several values for one entry are separate records, joined by “and”; a condition that tells them apart may be missing. Equal values may be shown once. The list shows a part of the results, in another mix than the full data. Records with an inconclusive call do not appear. Some compounds were tested as several samples or in several runs, with calls that do not always agree. Activity calls are given as the source filed them. The call rests on the fitted dose curve; in most records, active means well fitted activation curve with a large enough effect in the repeat runs; inconclusive means weak or mixed curves; inactive means flat fitted curve, though single readings scatter. On the % scale 0 is the no-effect control and ±100 the full control effect; potency means the concentration at half of the fitted maximal effect.", "data": [{"experiment": "A CellTox Green Cytotoxicity Assay to monitor cytotoxicity in HEK293 cells - 40 hour (AID 1224871); further: nearly all actives have a fitted effect of over 45% in size", "conditions": "CellTox Green fluorescence; series mostly up to 76.8 µM; cytotoxicity increase: at the top concentration", "from_the_text": "National Center for Advancing Translational Sciences [NCATS]\nNIH Chemical Genomics Center [NCGC]\nU.S. Environmental Protection Agency [EPA]\nNational Institutes of Environmental Health Sciences [NIEHS]\nNational Toxicology Program [NTP]\nCell-based models are critical for drug discovery. Determining the natural cytotoxic effects resulting from test compounds is an essential research activity. A CellTox Green Cytotoxicity Assay to monitor cytotoxicity in real time of continues cell culture during 40 hours of the compound treatment was used to screen Tox21 10K library compounds in Hek293 cells. CellTox Green Cytotoxicity Assay is a nonlytic, homogeneous, biofluorescent method to measure cytotoxicity in cell culture after experimental manipulation. The assay system uses a proprietary asymmetric cyanine dye that is excluded from viable cells but preferentially stains the dead cell's DNA. […] Viable cells produce no appreciable increases in fluorescence. Therefore, the fluorescence signal produced by the binding interaction with dead cell DNA is proportional to cytotoxicity.\nThe mixture of Hek293 cell suspension and reagents were dispensed at 600cells/6 ul/well in 1536-well tissue culture treated black solid bottom plates using a Multidrop dispenser. After the assay plates were incubated at a 37 C/5% CO2 incubator for 5 hours, 23 nL of compounds dissolved in DMSO, positive and negative controls was transferred to the assay plate by a pintool work station. The plates were incubated at 37 C for 40 hours. The fluorescence intensity were measured at 0h, 8h, 16h, 24h, 32h and 40h time points using ViewLux plate reader during compound treatment.", "values": [{"smiles": "Cc1c([N+](=O)[O-])cccc1[N+](=O)[O-]", "Potency": "inactive"}, {"smiles": "CCOP(=O)(CC)OCC", "cytotoxicity increase": "inactive: 6.47%"}, {"smiles": "[NH4+].[O-][Cl+3]([O-])([O-])[O-]", "Potency": "inactive"}, {"smiles": "CCOP(=O)(CC)Oc1ccc([N+](=O)[O-])cc1", "note": "(centres undefined)", "cytotoxicity increase": "inactive: -25.9% [at 35.3 µM]"}, {"smiles": "OCCSCCO", "Potency": "inactive"}, {"smiles": "O=[N+]([O-])[O-].[NH4+]", "Potency": "inactive and active: 38.9 µM"}, {"smiles": "Nc1cc([N+](=O)[O-])cc([N+](=O)[O-])c1O", "cytotoxicity increase": "inactive: -9.4%"}, {"smiles": "C/C1=C2N=C(/C=C3N=C(/C(C)=C4\\[N-][C@@](C)([C@@H]5N=C1[C@](C)(CCC(=O)NC[C@@H](C)OP(=O)([O-])O[C@H]1[C@@H](O)[C@@H](n6cnc7cc(C)c(C)cc76)O[C@@H]1CO)[C@H]5CC(N)=O)[C@@](C)(CC(N)=O)[C@@H]4CCC(N)=O)[C@@](C)(CC(N)=O)[C@@H]\\3CCC(N)=O)C(C)(C)[C@@H]/2CCC(N)=O.[C-]#N.[Co+3]", "cytotoxicity increase": "inactive: -4.46% [at 35.3 µM]"}, {"smiles": "CN(C)CCCl", "cytotoxicity increase": "inactive: 23.2%"}, {"smiles": "N#CBr", "cytotoxicity increase": "inactive: -11%"}, {"smiles": "Cc1cccc([N+](=O)[O-])c1[N+](=O)[O-]", "cytotoxicity increase": "inactive: -16.3% [at 35.3 µM]"}, {"smiles": "CP(=O)(O)OCCC[Si](O)(O)O", "cytotoxicity increase": "inactive: -12.9%"}, {"smiles": "CC(C)OP(C)(=O)OC(C)C", "Potency": "inactive"}, {"smiles": "Cc1ccc([N+](=O)[O-])cc1[N+](=O)[O-]", "Potency": "inactive"}, {"smiles": "COc1ccc([N+](=O)[O-])cc1[N+](=O)[O-]", "cytotoxicity increase": "inactive: -2.28%"}, {"smiles": "COP(C)(=O)OC", "Potency": "inactive"}, {"smiles": "N=C(N)N[N+](=O)[O-]", "cytotoxicity increase": "inactive: -13.9%"}, {"smiles": "CCN(CC)CCCl", "cytotoxicity increase": "inactive: -3.89%"}, {"smiles": "CC(C)N(CCO)C(C)C", "cytotoxicity increase": "inactive: 2.89%"}]}]}
